Measurements: patent publication US6559167B1, “Prodrugs of proton pump inhibitors” (Regents of the University of California, priority 1998, dated 2003)

Tests used:
[1] = Relative plasma concentration of OMEPRAZOLE in male rat after oral administration;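 note: Sprague-Dawley rats fasted one day with water available, dosed orally with prodrug compounds, OMEPRAZOLE quantified by HPLC in plasma from serial blood draws, control given OMEPRAZOLE itself orally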
[2] = system: gastric acid secretion of the conscious male rat; test: Inhibitory effect on gastric acid secretion of the conscious male rat at timed intervals after oral administration; format: in vivo; settings: between 5-8 hours after oral administration, 10 μmole/kg, histamine and carbachol stimulated, listed as 2-{4-[(5-methoxy-2-{[(3,5-dimethyl-4-methoxy-2-pyridyl)methyl]sulfinyl } benzimi)

| Substance | Relative concentration of OMEPRAZOLE released in the plasma ([1]; 20 min after oral administration, male rat, examples 2 mg/kg, OMEPRAZOLE 4 mg/kg) | Relative concentration of OMEPRAZOLE released in the plasma ([1]; 40 min after oral administration, male rat, examples 2 mg/kg, OMEPRAZOLE 4 mg/kg) | Relative concentration of OMEPRAZOLE released in the plasma ([1]; 60 min after oral administration, male rat, examples 2 mg/kg, OMEPRAZOLE 4 mg/kg) | Relative concentration of OMEPRAZOLE released in the plasma ([1]; 80 min after oral administration, male rat, examples 2 mg/kg, OMEPRAZOLE 4 mg/kg) | Relative concentration of OMEPRAZOLE released in the plasma ([1]; 100 min after oral administration, male rat, examples 2 mg/kg, OMEPRAZOLE 4 mg/kg) | Relative concentration of OMEPRAZOLE released in the plasma ([1]; 120 min after oral administration, male rat, examples 2 mg/kg, OMEPRAZOLE 4 mg/kg) | Relative concentration of OMEPRAZOLE released in the plasma ([1]; 140 min after oral administration, male rat, 2 mg/kg) | Relative concentration of OMEPRAZOLE released in the plasma ([1]; 160 min after oral administration, male rat, 2 mg/kg) | Relative concentration of OMEPRAZOLE released in the plasma ([1]; 180 min after oral administration, male rat, 2 mg/kg) | Relative concentration of OMEPRAZOLE released in the plasma ([1]; 210 min after oral administration, male rat, 2 mg/kg) | Relative concentration of OMEPRAZOLE released in the plasma ([1]; 240 min after oral administration, male rat, 2 mg/kg) | Relative concentration of OMEPRAZOLE released in the plasma ([1]; 270 min after oral administration, male rat, 2 mg/kg) | Relative concentration of OMEPRAZOLE released in the plasma ([1]; 300 min after oral administration, male rat, 2 mg/kg) | Relative concentration of OMEPRAZOLE released in the plasma ([1]; 330 min after oral administration, male rat, 2 mg/kg) | Relative concentration of OMEPRAZOLE released in the plasma ([1]; 360 min after oral administration, male rat, 2 mg/kg) | Relative concentration of OMEPRAZOLE released in the plasma ([1]; 390 min after oral administration, male rat, 2 mg/kg) | Relative concentration of OMEPRAZOLE released in the plasma ([1]; 430 min after oral administration, male rat, 2 mg/kg) | Bioavailability after oral administration (comparison with OMEPRAZOLE) ([1]; oral administration, male rat) | time for which OMEPRAZOLE was continuously released to the plasma ([1]; orally administrated to male rat) | % inhibition of gastric acid secretion [2] |
| --- | --- | --- | --- | --- | --- | --- | --- | --- | --- | --- | --- | --- | --- | --- | --- | --- | --- | --- | --- | --- |
| 2-{4-[(5-methoxy-2-{[(3,5-dimethyl-4-methoxy-2-pyridyl)methyl]sulfinyl}benzimidazol-1-yl)sulfonyl]phenoxy}-N-(2-pyridyl)acetamide and 2-{4-[(6-methoxy-2-{[(3.5-dimethyl-4-methoxy-2-pyridyl)methyl]sulfinyl}benzimidazol-1-yl)sulfonyl]phenoxy}-N-(2-pyridyl)acetamide [Example 33] | 2.5 arbitrary unit | 34 arbitrary unit | 13 arbitrary unit | 4 arbitrary unit | 2 arbitrary unit | 2 arbitrary unit | 1.5 arbitrary unit | 1 arbitrary unit | 1 arbitrary unit | 1 arbitrary unit | 1 arbitrary unit | 0.5 arbitrary unit | 0.5 arbitrary unit | 0.3 arbitrary unit | 0.3 arbitrary unit | 0.2 arbitrary unit | 0.1 arbitrary unit | much higher than that of OMEPRAZOLE | more than 4 hours | – |
| 2-{4-[(5-methoxy-2-{[(3.5-dimethyl-4-methoxy-2-pyridyl)methyl]sulfinyl}benzimidazol-1-yl)sulfonyl]phenoxy}acetamide and 2-{4-[(6-methoxy-2-{[(3,5-dimethyl-4-methoxy-2-pyridyl)methyl]sulfinyl}benzimidazol-1-yl)sulfonyl]phenoxy}acetamide [Example 53] | – | – | – | – | – | – | – | – | – | – | – | – | – | – | – | – | – | – | – | 65% |
